Patent US10555936B2, “Chemotherapeutic compositions and methods for treating human gliomas” (The Methodist Hospital, priority 2011, dated 2020)

Columns and labels:
[1] = system: BT-111 cells; assay: LDH growth assay, primary GBM cells; conditions: BT-111 primary GBM cells
Procedure: Primary GBM. Primary human glioblastoma cells were obtained from surgical theater, and subsequently grown in MEM with penicillin/streptomycin and 10% FBS (Invitrogen Corp., Carlsbad, Calif., USA). After two or more weeks of growth and splitting, 250 μL of resulting cells (at a density of 1×10^4 cells per mL) were plated into 96-well microtiter plates (Corning, Inc., New York City, N.Y., USA), and grown to confluence by incubation at 37° C. for at least 24 hr.
After 24 hrs, cells were treated with 20 μL/mL of ethanol, containing either the test drugs, inhibitors, or no additives (internal controls).
LDH Assay. After the XTT levels were determined the cells were washed using 2×250 μL of 5 mM glucose/3 mM Tris/30 mM HEPES/10 mM NaCl buffer (pH 7.4). The levels of lactate dehydrogenase activity in the presence of detergent (Korzeniewski and Callewaert, 1983; Decker and Lohmann-Matthes, 1988) were then assayed in each well (Corning). The final assay mixture contained 100 μL of 110 mM lactate, 3.35 mM NAD^+, 350 μM resazurin (Sigma-Aldrich), and 2.2 units/mL of diaphorase in 5 mM glucose/3 mM Tris/30 mM HEPES/10 mM NaCl buffer (pH 7.4) and 0.45% TritonX-100. The resorufin formed was measured over the course of 15 min in a plate reader using at 530/25 nm excitation (ex) and 590/35 nm emission (em). […]

[2] = system: human glioblastoma multiforme xenograft (BT111); assay: Human GBM xenograft, nude mouse flank model
Excerpt: FIG. 31A and FIG. 31B show the effects of 24-hr MP-MUS treatment. A statistically-significant drop in tumor volume, about 50%, was observed;
FIG. 33A and FIG. 33B show GBM from untreated and MP-MUS treated tumors. While the untreated cells appeared just like parental BT111, the MP-MUS-treated cells were in poor condition, as evidenced by a lot of cell debris (even though they had already been washed);
Statistical difference in on the top, first p<0.05, the p<0.005, and finally p<0.0005;
FIG. 35 show a different plot (untreated minus treated average) of the data.
. The distribution of the untreated mice is Gaussian (i.e., normal), but the biggest one in the MP-MUS treated makes it non-Gaussian;
In the previous examples, it was shown that MP-MUS can successfully treat human glioblastoma multiforme xenograft cultures in a nude mouse flank model.

[3] = system: BT-111 cells; assay: Measurement of DNA breaks; conditions: compared with temozolomide
Procedure: ddTUNEL. A Tdt reaction buffer was prepared daily diluting a stock solution of 125 mM Tris-HCl, 1 M sodium cacodylate, 1.25 mg/mL BSA, pH 6.6 by 1:5 and diluting 1:25 a 25 mM cobalt chloride stock solution. The sample was twice washed in this solution and then ≈50 μL of reaction buffer containing 20 U/mL of Tdt and 250 nM of labeled-ddUTP was applied to each of the sections, which were then incubated in a humidified box overnight at room temperature or for 2 hrs at 37° C. Roche Biotin-16-ddUTP (Roche Diagnostics, Branford, Conn., USA) was used throughout and was visualized using Texas-Red labeled Avidin (Baskin et al., 2010a; Baskin et al., 2010b).
A paired sample underwent the same ligation following incubation with DNA polymerase/dNTP, so all overhanging ends were converted into blunt ends. […] It was clear that MP-MUS (I) was extremely good at inducing DNA breaks, far more so than the conventional methylation agent, temozolomide. […] Additionally, overhanging ends were the most common type of break observed.

[4] = system: BT116 glioblastoma; assay: Human vimentin and CD3-ε histology of mouse brains
Procedure: We used the mildest conditions that would remove the majority of endogenous and added peroxidase activity, but not destroy the human vimentin. **For Vector Mouse Anti-Vimentin clone V9 and Santa Cruz Mouse anti-EGFR clone 528 the procedure was performed as shown. For CD3-ε, an extra step was used. CD3-ε was bound using an Arminian Hamster anti-CD3 epsilon antibody [145-2C11] conjugated with FITC, at a 1:10 dilution, for 1 hour. This was developed using a mouse anti-FITC antibody, Sigma clone FL-D6, at 1:100 dilution, for 1 hour. ***Either a HRP-linked horse anti-Mouse antibody to develop DAB or the HiDef™ HRP-polymer system was used, the latter of which gave better signal-to-noise ratio, but has a disadvantage of detecting some levels of endogenous IgG in SCID mice;
For vector mouse anti-vimentin clone #V9 and Santa Cruz Mouse anti-EGFR clone #528 the procedure was performed as shown. For CD3-ε, an extra step was used. CD3-ε was bound using an Arminian Hamster anti-CD3 epsilon antibody [145-2C11] conjugated with FITC, at a 1:10 dilution, for 1 hr. This was developed using a mouse anti-FITC antibody. Sigma clone FL-D6, at 1:100 dilution for 1 hr. Either an HRP-linked horse anti-Mouse antibody (to develop DAB), or the HiDef™ HRP-polymer system (which gives better signal-to-noise ratio, but may detect endogenous IgG in SCID mice) was used.
Detection of Vimentin and CD3-ε in MP-MUS Treated Animals. The same histological analysis was performed on three complete brains of the MP-MUS-treated animals. Their fixed brains were sectioned in groups of five, cut at 5 μm, with 3-4 individual brain sections per slide, the whole width of the brain. In MP-MUS #7, the inventors were unable to detect human vimentin in representative sections of the entire brain. At the injection site, there were voids, with some blood/blood breakdown products. CD3-ε cells, with low expression level were identifiable throughout the brain, but at lower density to those observed in the Saline treated mice. […]

[5] = system: BT-111 cells; assay: XTT mitochondrial complex activity assay; format: cell-based, human; conditions: read-out: concentration that abolished half of the mitochondrial complex activity; BT-111, XTT
[6] = system: BT-111 cells; assay: Mitochondrial membrane potential, Mitotracker Red; format: cell-based, human
[7] = system: BT116 glioblastoma; assay: Intracranial human glioblastoma model
Procedure: Postglenoid Foramen Injection. […] Some five minutes after injection and recovery from the anesthetic, the majority of the mice were walking around and were phenotypically normal within an hour. In the main study 40 SCID immuno-deficient mice were injected via the postglenoid foramen with glioblastoma in Matrigel™:tissue culture medium, 4:6, to a final cell load of 2,500,000 cells per animal; according to Iwami et al., (2012). […] A number of the SCID mice died following the glioma injections or had deficits in the first few weeks following the initial injection. After >3 months, 24 animals were asymptomatic, and 22 animals were split into two groups; MP-MUS treated and Saline treated. The remaining pair was sacrificed and their brains were fixed/waxed and archived as pre-treatment controls.
Drug Therapy and Symptom Monitoring. On day 115 mice are then given either 200 μL saline or 200 μL of 1 mg/mL MP-MUS in saline, via tail-vein injection. The same treatment was repeated on days 122 and 129.
The mice were initially placed in groups of 2×4 and 1×3 animals and were individually every 1-3 days. The mice were assessed for the onset of neurological symptoms caused by an intracranial tumor throughout the study. Symptoms in the mice that require euthanasia were sudden weight loss; >2 grams in 7 days, deficits of movement that caused the animal to be unable to drink/feed and immobility. […]

[8] = system: glioma cells; assay: Mitochondrial proteins L11 and cytochrome c, antibody labeling
Procedure: Antibody Labeling. Anti-mitochondrial ribosomal protein L11 rabbit antibody (ab74285) and Anti-cytochrome c antibody (ab13575) were obtained from Abcam (Cambridge, Mass., USA), and were visualized using labeled secondary antibodies; Alexa Fluor 594 goat anti-mouse IgG (A-11032) and Alexa Fluor 488 goat anti-rabbit IgG (A-11034) from Invitrogen. Permeabilized cells were blocked with 10% equine sera (Invitrogen) for 1 hr, washed in PBS/0.1% Triton X-100 and then incubated overnight with primary antibody (1:1000), washed twice in PBS/0.1% Triton X-100, incubated with the secondary's overnight and then washed twice more. DNA was stained using DAPI (Invitrogen) by incubation with 30 nM DAPI in PBS for 5 min, and then cells were washed twice in PBS/0.1% Triton X-100. The wells were then filled with 100 μL PBS/0.1% Triton X-100, and imaging performed.
3) Effect of MP-MUS (I) on Mitochondrial Proteins. […] It was evident that there was an increase in the levels of L11 (red), and cytochrome c (green), after only 24 hrs' incubation.
Extending the incubation to 48 hrs led to a loss of morphology, bloated nuclei, and a loss of defined mitochondria. Although the levels of L11 remained high, there was an almost complete loss of cytochrome c.

CC(C(=O)N(CCCl)CCCl)C1=CCN(C)CC1 (stereo not drawn)
LD50, fold lower than temozolomide [1]: 5 fold
drop in tumor volume ([2]; 24-hr MP-MUS treatment): about 50%
tumor growth relative to the untreated rate ([2]; after the first injection): less than 50%
mice cured ([2]; distribution in tumor size): Two mice were cured
treated mice with tumors less than the smallest untreated tumor ([2]; distribution in tumor size): 90%
condition of GBM cells cultured from treated tumors ([2]; tumor extracted, minced, cultured): in poor condition
tumor shrinkage after the first injection ([2]; untreated minus treated average): 60%
induction of DNA breaks [3]: extremely good at inducing DNA breaks
vimentin-positive cells in one section near injection site ([4]; mouse MP-MUS #1): < 20 cells
human vimentin in sections of the entire brain ([4]; mouse MP-MUS #7): unable to detect human vimentin
human gliomal cells in left, non-injected hemisphere ([4]; mouse MP-MUS #8): no human gliomal cells were identified
IC50 [5]: 2000 nM
mitochondrial membrane potential reduction ([6]; 12 μM for 24 hours): reduced by more than a third
Mitotracker Red signal lowered to ([6]; 12 μM for 24 hr): 31%
drop in Mitotracker Red signal on co-incubation with selegiline ([6]; 12 μM for 24 hr with 10 μM selegiline): almost completely arrested
signal conserved on co-incubation with MAO-B inhibitor ([6]; 12 μM, 24 hours, co-incubated with selegiline): 90%
onset of symptoms ([7]; Day 225, 11 mice, study ended Day 307): 1st MP-MUS mouse symptomatic
deaths in treated group ([7]; n=11, 3 tail-vein injections of 200 μL 1 mg/mL, survival curve): only one animal in the MP-MUS treated group died
levels of L11 and cytochrome c ([8]; 24 hrs' incubation, 10 μM): increase in the levels of L11 (red), and cytochrome c (green)
cell death ([8]; 48 hrs incubation): > 95%
cytochrome c level ([8]; 48 hrs incubation, 10 μM): almost complete loss of cytochrome c
